The numbers were not newly measured in patent US6703042B1, “Salts of L-carnitine and lower alkanoyl L-carnitine” (Sigma-Tau Industries Farmaceutiche Riunite S.p.A., priority 1999, dated 2004), which cites them from elsewhere.

For this data set the following is noted: background statement; cited from earlier work.

With acetyl L-carnitine acid L-aspartate, the “Hygroscopicity (known salts, prior art)” value is reported as “non-hygroscopic”. acetyl L(−)-carnitine tartrate: the “Hygroscopicity (known salts, prior art)” value is reported as “strongly hygroscopic”.
